Here are results for 12 compounds from PubChem BioAssay (EPA / NIEHS).

This is a selection; strong and weak results do not stand in their true shares. Calls of active or inactive are those of the source. Rule for the calls: active = hit-call score of the fitted dose curve at least 0.9, where 1 is the maximum; inactive = score below 0.9.

The assay is described as follows: ATG_AP_2_CIS: Attagene CIS-FACTORIAL HepG2 Assay for human Activator Protein 2 (AP-2) (AID 2282932). The conditions noted are these: HepG2 AP-2 cis-reporter, Attagene transcription factor profiling; actives raise or lower the signal. As for the experimental part: ATG_CIS is a cell-based, multiplexed-readout assay that uses HepG2, a human liver cell line, with measurements taken at 24 hours after chemical dosing in a 24-well plate.ATG_AP_2_CIS is one of 52 assay component(s) measured or calculated from the ATG_CIS assay. It is designed to make measurements of mRNA induction, a form of inducible reporter, as detected with fluorescence intensity signals by Reverse transcription polymerase chain reaction (RT-PCR) and Capillary electrophoresis technology.Data from the assay component ATG_AP_2_CIS was analyzed into 1 assay endpoint. This assay endpoint, ATG_AP_2_CIS, was analyzed with bidirectional fitting relative to DMSO as the negative control and baseline of activity. Using a type of inducible reporter, measures of mRNA for gain or loss-of-signal activity can be used to understand the reporter gene at the transcription factor-level as they relate to the gene TFAP2A and TFAP2B and TFAP2D. Furthermore, this assay endpoint can be referred to as a primary readout, because this assay has produced multiple assay endpoints where this one serves a reporter gene function. To generalize the intended target to other relatable targets, this assay endpoint is annotated to the dna binding intended target family, where the subfamily is basic helix-turn-helix leucine zipper.
Human liver HepG2 cells are transiently transfected with multiple reporter transcription units (MRTUs) in 6-well plates using FuGene 6 reagent (Roche; 3 ml FuGene/1 mg DNA). The MRTU constructs are regulated by a cis-regulating element (promoter). […] A major difference between the CIS and TRANS system is that in CIS activities of endogenous TFs are measured, whereas the TRANS assay evaluates changes in activities of exogenous, chimeric NR-Gal4 proteins. […] At the end of 24 hour incubation, total RNA was isolated using TriZol reagent (Invitrogen). The isolated RNA is then reverse-transcribed using oligo(dT) primer and Mo-MLV reverse transcriptase (Invitrogen) with DNAse I (Ambion) treatment for 30 min. The one-tenth of the produced cDNA was amplified by PCR using Taq DNA polymerase (Invitrogen) and two reporter sequence-specific primers. The PCR products were fluorescently labeled by primer extension with 6-arboxyfluorescein (6-FAM) 5'-labeled reporter sequence-specific primer (2 min at 95 C, 20 s at 68 C and 10 min at 72 C) and these products were digested with 5U of HpaI (New England Biolabs) for 2h at 37 C. The fragments were purified using Qiaquick PCR columns (Qiagen), analyzed on an ABI 3130xL genetic analyzer (Applied Biosystems) with peak positions identified by using a set of X-rhodamine (ROX)-labeled MapMarker1000 molecular weight standards (BioVentures). The raw capillary electrophoresis data was processed using Attagraph software (Attagene).
Regarding `N#CBr`, the outcome was inactive. To `Cc1cccc([N+](=O)[O-])c1[N+](=O)[O-]` belongs “inactive”; to `O=[N+]([O-])OCC(CO[N+](=O)[O-])(CO[N+](=O)[O-])CO[N+](=O)[O-]`, “inactive”; to `CC(C)OP(C)(=O)OC(C)C`, “inactive”. The same measure for `COP(C)(=O)OC`: “inactive”.

`CC(C)N(CCO)C(C)C`: the outcome was inactive.

`Cc1ccc([N+](=O)[O-])c([N+](=O)[O-])c1`: the compound was classed as inactive.

With `CN(C)CCCl`, the result was inactive. To `COc1ccc([N+](=O)[O-])cc1[N+](=O)[O-]` belongs “inactive”. The same measure for `O=[N+]([O-])c1cccc([N+](=O)[O-])c1`: “inactive”; for `Cc1c([N+](=O)[O-])cccc1[N+](=O)[O-]`: “inactive”. Take `Cc1ccc([N+](=O)[O-])cc1[N+](=O)[O-]`: the call was inactive.
